Test results reported in patent publication US20060234237A1 (priority 2004, published 2006).

Tested on: Colon cancer and a lung cancer cell lines
Assay: Modulation of biomarker expression by treatment with ligands for EGFR or inhibitors for EGFR (cell line not stated)
Type: cell-based, human
Settings: treatment with EGFR inhibitor; 10% serum; 6 and 24 hours; two fold criterion vs untreated control

cetuximab [C225]
Expression of spondin 1, talin 2 and nuclear receptor subfamily 3: consistently down regulated
